Laboratory results reported in PubChem BioAssay (NCI).
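Protocol summary: plate cells (96-well), add compound at 5 concentrations, incubate 48 h, interpolate endpoints linearly. Abbreviation: GI50, concentration required for 50% inhibition of growth. TGI marks complete inhibition of growth.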

Assays:
Assay in all cases: growth of human tumour cells (NCI), 48 h
786-0 renal = tested on: 786-0 renal
A549 NSCLC = tested on: A549 NSCLC
ACHN renal = tested on: ACHN renal
CAKI-1 renal = tested on: CAKI-1 renal
CCRF-CEM leukemia = tested on: CCRF-CEM leukemia
COLO 205 colon = tested on: COLO 205 colon
DLD-1 colon = tested on: DLD-1 colon
DMS 114 small cell lung = tested on: DMS 114 small cell lung
DMS 273 small cell lung = tested on: DMS 273 small cell lung
EKVX NSCLC = tested on: EKVX NSCLC
HCC-2998 colon = tested on: HCC-2998 colon
HCT-116 colon = tested on: HCT-116 colon
HCT-15 colon = tested on: HCT-15 colon
HL-60(TB) leukemia = tested on: HL-60(TB) leukemia
HOP-18 NSCLC = tested on: HOP-18 NSCLC
HOP-62 NSCLC = tested on: HOP-62 NSCLC
HOP-92 NSCLC = tested on: HOP-92 NSCLC
HT29 colon = tested on: HT29 colon
IGROV1 ovarian = tested on: IGROV1 ovarian
K-562 leukemia = tested on: K-562 leukemia
KM12 colon = tested on: KM12 colon
KM20L2 colon = tested on: KM20L2 colon
LOX IMVI melanoma = tested on: LOX IMVI melanoma
LXFL 529 NSCLC = tested on: LXFL 529 NSCLC
M14 melanoma = tested on: M14 melanoma
M19-MEL melanoma = tested on: M19-MEL melanoma
MALME-3M melanoma = tested on: MALME-3M melanoma
MOLT-4 leukemia = tested on: MOLT-4 leukemia
NCI-H226 lung = tested on: NCI-H226 lung
NCI-H23 lung = tested on: NCI-H23 lung
NCI-H322M lung = tested on: NCI-H322M lung
NCI-H460 lung = tested on: NCI-H460 lung
OVCAR-3 ovarian = tested on: OVCAR-3 ovarian
OVCAR-4 ovarian = tested on: OVCAR-4 ovarian
OVCAR-5 ovarian = tested on: OVCAR-5 ovarian
OVCAR-8 ovarian = tested on: OVCAR-8 ovarian
RPMI-8226 leukemia = tested on: RPMI-8226 leukemia
RXF 393 renal = tested on: RXF 393 renal
RXF-631 renal = tested on: RXF-631 renal
SF-268 CNS = tested on: SF-268 CNS
SF-295 CNS = tested on: SF-295 CNS
SF-539 CNS = tested on: SF-539 CNS
SK-MEL-2 melanoma = tested on: SK-MEL-2 melanoma
SK-MEL-28 melanoma = tested on: SK-MEL-28 melanoma
SK-MEL-5 melanoma = tested on: SK-MEL-5 melanoma
SK-OV-3 ovarian = tested on: SK-OV-3 ovarian
SN12C renal = tested on: SN12C renal
SNB-19 CNS = tested on: SNB-19 CNS
SNB-75 CNS = tested on: SNB-75 CNS
SNB-78 CNS = tested on: SNB-78 CNS
SR leukemia = tested on: SR leukemia
SW-620 colon = tested on: SW-620 colon
TK-10 renal = tested on: TK-10 renal
U251 CNS = tested on: U251 CNS
UACC-257 melanoma = tested on: UACC-257 melanoma
UACC-62 melanoma = tested on: UACC-62 melanoma
UO-31 renal = tested on: UO-31 renal
XF 498 CNS = tested on: XF 498 CNS

With N.N.N.N.N.[Cl-].[Co+3].n1n[n-]c(-c2nn[n-]n2)n1 as the molecule, how does the GI50 (786-0 renal) read?
Its GI50 is > 100 µM.

And the TGI (786-0 renal)?
Its TGI is > 100 µM.

What about the GI50 (A549 NSCLC) of the same molecule?
The GI50 was > 100 µM.

What about the TGI (A549 NSCLC) of the same molecule?
Its TGI is > 100 µM.

And the GI50 (ACHN renal)?
Its GI50 is > 100 µM.

And the TGI (ACHN renal)?
The TGI was > 100 µM.

And the GI50 (CAKI-1 renal)?
Its GI50 is > 100 µM.

And the TGI (CAKI-1 renal)?
Its TGI is > 100 µM.

And the GI50 (CCRF-CEM leukemia)?
Its GI50 is > 100 µM.

And the TGI (CCRF-CEM leukemia)?
The TGI was > 100 µM.

And the GI50 (COLO 205 colon)?
Its GI50 is > 100 µM.

What about the TGI (COLO 205 colon) of the same molecule?
The TGI was > 100 µM.

And the GI50 (DLD-1 colon)?
The GI50 was > 100 µM.

What about the TGI (DLD-1 colon) of the same molecule?
The TGI was > 100 µM.

What about the GI50 (DMS 114 small cell lung) of the same molecule?
The GI50 was > 100 µM.

And the TGI (DMS 114 small cell lung)?
Its TGI is > 100 µM.

And the GI50 (DMS 273 small cell lung)?
The GI50 was > 100 µM.

What about the TGI (DMS 273 small cell lung) of the same molecule?
The TGI was > 100 µM.

What about the GI50 (EKVX NSCLC) of the same molecule?
The GI50 was > 100 µM.

And the TGI (EKVX NSCLC)?
Its TGI is > 100 µM.

What about the GI50 (HCC-2998 colon) of the same molecule?
The GI50 was > 100 µM.

What about the TGI (HCC-2998 colon) of the same molecule?
Its TGI is > 100 µM.

And the GI50 (HCT-116 colon)?
The GI50 was > 100 µM.

What about the TGI (HCT-116 colon) of the same molecule?
The TGI was > 100 µM.

And the GI50 (HCT-15 colon)?
The GI50 was > 100 µM.

And the TGI (HCT-15 colon)?
The TGI was > 100 µM.

What about the GI50 (HL-60(TB) leukemia) of the same molecule?
Its GI50 is > 100 µM.

And the TGI (HL-60(TB) leukemia)?
Its TGI is > 100 µM.

And the GI50 (HOP-18 NSCLC)?
Its GI50 is > 100 µM.

And the TGI (HOP-18 NSCLC)?
Its TGI is > 100 µM.

What about the GI50 (HOP-62 NSCLC) of the same molecule?
The GI50 was > 100 µM.

What about the TGI (HOP-62 NSCLC) of the same molecule?
The TGI was > 100 µM.

What about the GI50 (HOP-92 NSCLC) of the same molecule?
Its GI50 is > 100 µM.

And the TGI (HOP-92 NSCLC)?
The TGI was > 100 µM.

And the GI50 (HT29 colon)?
The GI50 was > 100 µM.

What about the TGI (HT29 colon) of the same molecule?
Its TGI is > 100 µM.

And the GI50 (IGROV1 ovarian)?
Its GI50 is > 100 µM.

And the TGI (IGROV1 ovarian)?
Its TGI is > 100 µM.

And the GI50 (K-562 leukemia)?
The GI50 was > 100 µM.

What about the TGI (K-562 leukemia) of the same molecule?
The TGI was > 100 µM.

And the GI50 (KM12 colon)?
The GI50 was > 100 µM.

And the TGI (KM12 colon)?
Its TGI is > 100 µM.

What about the GI50 (KM20L2 colon) of the same molecule?
The GI50 was > 100 µM.

And the TGI (KM20L2 colon)?
The TGI was > 100 µM.

And the GI50 (LOX IMVI melanoma)?
The GI50 was > 100 µM.

What about the TGI (LOX IMVI melanoma) of the same molecule?
The TGI was > 100 µM.

And the GI50 (LXFL 529 NSCLC)?
Its GI50 is > 100 µM.

And the TGI (LXFL 529 NSCLC)?
Its TGI is > 100 µM.

What about the GI50 (M14 melanoma) of the same molecule?
The GI50 was > 100 µM.

And the TGI (M14 melanoma)?
Its TGI is > 100 µM.

What about the GI50 (M19-MEL melanoma) of the same molecule?
The GI50 was > 100 µM.

What about the TGI (M19-MEL melanoma) of the same molecule?
The TGI was > 100 µM.

And the GI50 (MALME-3M melanoma)?
Its GI50 is > 100 µM.

What about the TGI (MALME-3M melanoma) of the same molecule?
Its TGI is > 100 µM.

And the GI50 (MOLT-4 leukemia)?
Its GI50 is > 100 µM.

And the TGI (MOLT-4 leukemia)?
The TGI was > 100 µM.

What about the GI50 (NCI-H226 lung) of the same molecule?
The GI50 was > 100 µM.

What about the TGI (NCI-H226 lung) of the same molecule?
The TGI was > 100 µM.

And the GI50 (NCI-H23 lung)?
The GI50 was > 100 µM.

What about the TGI (NCI-H23 lung) of the same molecule?
Its TGI is > 100 µM.

And the GI50 (NCI-H322M lung)?
The GI50 was > 100 µM.

What about the TGI (NCI-H322M lung) of the same molecule?
Its TGI is > 100 µM.

And the GI50 (NCI-H460 lung)?
The GI50 was > 100 µM.

And the TGI (NCI-H460 lung)?
Its TGI is > 100 µM.

What about the GI50 (OVCAR-3 ovarian) of the same molecule?
Its GI50 is > 100 µM.

And the TGI (OVCAR-3 ovarian)?
Its TGI is > 100 µM.

What about the GI50 (OVCAR-4 ovarian) of the same molecule?
Its GI50 is > 100 µM.

What about the TGI (OVCAR-4 ovarian) of the same molecule?
Its TGI is > 100 µM.

And the GI50 (OVCAR-5 ovarian)?
Its GI50 is > 100 µM.

And the TGI (OVCAR-5 ovarian)?
Its TGI is > 100 µM.

What about the GI50 (OVCAR-8 ovarian) of the same molecule?
Its GI50 is > 100 µM.

And the TGI (OVCAR-8 ovarian)?
The TGI was > 100 µM.

And the GI50 (RPMI-8226 leukemia)?
Its GI50 is > 100 µM.

What about the TGI (RPMI-8226 leukemia) of the same molecule?
Its TGI is > 100 µM.

What about the GI50 (RXF 393 renal) of the same molecule?
The GI50 was > 100 µM.

What about the TGI (RXF 393 renal) of the same molecule?
The TGI was > 100 µM.

What about the GI50 (RXF-631 renal) of the same molecule?
The GI50 was > 100 µM.

What about the TGI (RXF-631 renal) of the same molecule?
Its TGI is > 100 µM.

What about the GI50 (SF-268 CNS) of the same molecule?
Its GI50 is > 100 µM.

What about the TGI (SF-268 CNS) of the same molecule?
Its TGI is > 100 µM.

And the GI50 (SF-295 CNS)?
Its GI50 is > 100 µM.

And the TGI (SF-295 CNS)?
Its TGI is > 100 µM.

What about the GI50 (SF-539 CNS) of the same molecule?
Its GI50 is > 100 µM.

And the TGI (SF-539 CNS)?
The TGI was > 100 µM.

What about the GI50 (SK-MEL-2 melanoma) of the same molecule?
The GI50 was > 100 µM.

And the TGI (SK-MEL-2 melanoma)?
Its TGI is > 100 µM.

And the GI50 (SK-MEL-28 melanoma)?
Its GI50 is > 100 µM.

And the TGI (SK-MEL-28 melanoma)?
The TGI was > 100 µM.

What about the GI50 (SK-MEL-5 melanoma) of the same molecule?
Its GI50 is > 100 µM.

And the TGI (SK-MEL-5 melanoma)?
The TGI was > 100 µM.

And the GI50 (SK-OV-3 ovarian)?
Its GI50 is > 100 µM.

What about the TGI (SK-OV-3 ovarian) of the same molecule?
The TGI was > 100 µM.

What about the GI50 (SN12C renal) of the same molecule?
The GI50 was > 100 µM.

What about the TGI (SN12C renal) of the same molecule?
The TGI was > 100 µM.

And the GI50 (SNB-19 CNS)?
Its GI50 is > 100 µM.

What about the TGI (SNB-19 CNS) of the same molecule?
Its TGI is > 100 µM.

What about the GI50 (SNB-75 CNS) of the same molecule?
Its GI50 is > 100 µM.

And the TGI (SNB-75 CNS)?
Its TGI is > 100 µM.

What about the GI50 (SNB-78 CNS) of the same molecule?
Its GI50 is > 100 µM.

What about the TGI (SNB-78 CNS) of the same molecule?
Its TGI is > 100 µM.

And the GI50 (SR leukemia)?
Its GI50 is > 100 µM.

And the TGI (SR leukemia)?
Its TGI is > 100 µM.

What about the GI50 (SW-620 colon) of the same molecule?
The GI50 was > 100 µM.

What about the TGI (SW-620 colon) of the same molecule?
Its TGI is > 100 µM.

What about the GI50 (TK-10 renal) of the same molecule?
Its GI50 is > 100 µM.

What about the TGI (TK-10 renal) of the same molecule?
The TGI was > 100 µM.

And the GI50 (U251 CNS)?
Its GI50 is > 100 µM.

What about the TGI (U251 CNS) of the same molecule?
Its TGI is > 100 µM.

What about the GI50 (UACC-257 melanoma) of the same molecule?
Its GI50 is > 100 µM.

And the TGI (UACC-257 melanoma)?
The TGI was > 100 µM.

What about the GI50 (UACC-62 melanoma) of the same molecule?
Its GI50 is > 100 µM.

What about the TGI (UACC-62 melanoma) of the same molecule?
Its TGI is > 100 µM.

What about the GI50 (UO-31 renal) of the same molecule?
Its GI50 is > 100 µM.

What about the TGI (UO-31 renal) of the same molecule?
The TGI was > 100 µM.

What about the GI50 (XF 498 CNS) of the same molecule?
Its GI50 is > 100 µM.

What about the TGI (XF 498 CNS) of the same molecule?
Its TGI is > 100 µM.
